Data as given in ChEMBL document CHEMBL5252510, “A Novel Potent Oral Series of VEGFR2 Inhibitors Abrogate Tumor Growth by Inhibiting Angiogenesis” (J Med Chem, 2016).

Key:
[1] = Selectivity ratio of IC50 for mouse VEGFR2 to IC50 for human VEGFR2
[2] = organism: Homo sapiens; test: Selectivity ratio of IC50 for human VEGFR2 to IC50 for human VEGFR3
[3] = organism: Homo sapiens; test: Selectivity ratio of IC50 for human VEGFR2 to IC50 for human VEGFR1

Row | Structure (SMILES) | Ratio IC50 [1] | Ratio IC50 [2] | Ratio IC50 [3]
1 | Nc1nccc(Oc2ccc3c(C(=O)Nc4cccc(C(F)(F)F)c4)cccc3c2)n1 | 17 |  | 
2 | O=C(Nc1cccc(C(F)(F)F)c1)c1cccc2cc(Oc3cc(CO)ncn3)ccc12 [BFH-772] | 500 | 500 | 500
